Results on 89 compounds are retold here after published antibiotic growth screens (doi:10.1038/s41589-023-01349-8).

SMILES strings stand for the structures. The list shows a part of the results.

This experiment concerns A. baumannii ATCC 17978. Put plainly: relative growth (fraction of control); higher = less inhibition. The following applies: 50 µM.
On to `O=C(N[C@@H]1CC=CC[C@H](CC(=O)N(CCO)Cc2ccccc2)C(=O)NC[C@H](c2ccccc2)OC1=O)OCC1c2ccccc2-c2ccccc21`, for which the relative growth was 1.1. Take `C[C@]12CCC3c4ccc(O)cc4CCC3C1CCC2=O` (some centres undefined): the relative growth amounted to 1.07.

For the compound `CCOC(=O)c1c(C)cc(OC)cc1O`, the relative growth was found to be 1.19. Regarding `O=C(CCBr)N1CCN(C(=O)CCBr)CC1`, the relative growth is 1.19. For `N[C@H]1CONC1=O`, the relative growth stood at 0.933. In turn, `CCCCC1C(=O)N(c2ccccc2)N(c2ccc(O)cc2)C1=O` (centres undefined) showed a relative growth of 1.03. `CCN1CCC[C@@H]1CNC(=O)c1cc(S(N)(=O)=O)ccc1OC` gave a relative growth of 1.02. In turn, `CCCc1nc(C)c2c(=O)[nH]c(-c3cc(S(=O)(=O)N4CCN(CC)CC4)ccc3OCC)nn12.Cl` gave a relative growth of 1.22.

`Fc1ccc(-c2nc3ccc4ccccc4c3c3c2CCC3)cc1`: the relative growth is 1.15. For the compound `COc1cc(OC)c2ccc(=O)oc2c1`, the relative growth came out at 0.768. With `COc1ccc(C#Cc2ccc3c(c2)[C@]2(C(=O)N3)[C@H](C(=O)N3CCc4cc(OC)c(OC)cc4C3)[C@H]3C(=O)O[C@H](c4ccccc4)[C@H](c4ccccc4)N3[C@@H]2c2ccccc2OCCO)cc1`, the relative growth amounted to 1.22. `CC(N)O.Cc1cc(CC(C)CC(C)(C)C)n(O)c(=O)c1` (centres undefined) had a relative growth of 0.152. Compound `CO[C@@H]1CN(C)C(=O)c2ccc(NC(=O)C3CCOCC3)cc2OC[C@H](C)N(Cc2cccnc2)C[C@H]1C` came in with a relative growth of 1.23.

Compound `CN(C)CCCN1c2ccccc2CCc2ccc(Cl)cc21.Cl` gave a relative growth of 1.1. The value for `CC(=O)Nc1ccc(OC(=O)c2ccccc2O)cc1` was 1.26. In turn, `Cc1c(C(N)=O)sc2[nH]cnc(=O)c12` displayed a relative growth of 1.02. In the case of `Cc1ccc2c(c1)/C(=C/c1ccncc1)c1cc3ccccc3nc1-2`, the relative growth is 1.2. For `CO[C@H]1CN(C)C(=O)c2cc(NC(=O)C3CCOCC3)ccc2OC[C@@H](C)N(Cc2cccnc2)C[C@H]1C`, the relative growth stood at 1.12. `O=c1c(O)c(-c2ccc(O)cc2)oc2cc(O)cc(O)c12` displayed a relative growth of 0.958.

Turning to `CNC(=O)C[C@H]1CC[C@H]2[C@@H](COC[C@@H](O)CN2C(=O)c2ccccn2)O1`, the relative growth amounted to 0.908. Regarding `CN1CCN(S(=O)(=O)c2ccc(CN)cc2)CC1`, the relative growth amounted to 1.04. Compound `O=c1cn[nH]c(Nc2ccccc2)n1` had a relative growth of 0.91. With `COc1ccccc1CN1C(=O)c2ccccc2[C@@]2(Cc3ccccc3N(C3CC3)C2=O)[C@@H]1c1ccc(CO)cc1`, the relative growth came to 0.915. `CC(C)[N+]1(C)C2CC[C@H]1C[C@@H](OC(=O)C(CO)c1ccccc1)C2.[Br-]` (some centres undefined): the relative growth amounted to 0.996. On to `O=C(Cn1ccc([N+](=O)[O-])n1)Nc1cccnc1`, for which the relative growth amounted to 1.09. `O=C(C[C@H]1CC[C@@H]2[C@H](COC[C@H](O)CN2C(=O)Nc2ccc(Cl)c(Cl)c2)O1)NCc1ccc(Cl)c(Cl)c1`: the relative growth is 0.925.

In turn, `CCCNC(=O)NS(=O)(=O)c1ccc(Cl)cc1` had a relative growth of 1.3.

The compound `C[C@@H]1CN([C@H](C)CO)S(=O)(=O)c2ccc(-c3ccc(C#N)cc3)cc2O[C@@H]1CN(C)C(=O)CN(C)C` yielded a relative growth of 1.02. For `O=C(O)C[C@H]1CC[C@H]2[C@@H](COC[C@@H](O)CN2S(=O)(=O)c2ccc(F)cc2)O1` the value was 0.899. The compound `CCCCCCOC(=O)/N=C(\N)c1ccc(NCc2nc3cc(C(=O)N(CCC(=O)OCC)c4ccccn4)ccc3n2C)cc1.CS(=O)(=O)O` showed a relative growth of 1.07. Compound `O=C(O)CN(CCN(CC(=O)O)CC(=O)O)CC(=O)O` came in with a relative growth of 0.984. `OCCC12CC3CC(CC(C3)C1)C2` had a relative growth of 0.936.

For the compound `C[C@@H]1CN([C@H](C)CO)S(=O)(=O)c2ccc(Br)cc2O[C@H]1CN(C)Cc1cccc(C(=O)O)c1`, the relative growth came to 0.962. Compound `CC(CN1c2ccccc2Sc2ccccc21)N(C)C.Cl` (centres undefined) returned a relative growth of 0.995. Compound `NC(=O)CNC(=O)c1cccc(Cl)c1` displayed a relative growth of 0.988. Take `CCCCC(CC)COC(=O)CC(C(=O)OCC(CC)CCCC)S(=O)(=O)[O-].[Na+]` (centres undefined): the relative growth stood at 1.14. For the compound `CC/N=C1\S[C@@H](CC(=O)NC)C(=O)N1CC`, the relative growth stood at 1.09.

With `Fc1cccc(CSCc2c(F)cccc2Cl)c1`, the relative growth was 0.954. `COCC(=O)Nc1ccc2c(c1)C(=O)N(C)C[C@@H](OC)[C@@H](C)CN(Cc1ccccc1OC)[C@@H](C)CO2` showed a relative growth of 0.917. With `O=C(O)c1cnc(N2CCCC2)nc1`, the relative growth was found to be 0.972. For `NC(=O)C[C@H](N)C(=O)O` the value was 0.955; for `CO/N=C(/C(=O)NC1C(=O)N2C(C(=O)[O-])=C(COC(N)=O)CSC12)c1ccco1.[Na+]` (centres undefined), 0.197. In the case of `Cc1cc(-c2ccc3ccccc3n2)nc2ccc3ccccc3c12`, the relative growth is 0.91.

`CCC(NC(C)C)C(O)c1ccc(O)c(O)c1.CS(=O)(=O)O` (centres undefined) yielded a relative growth of 0.965.

Turning to `C/C=C/c1ccc2c(c1)O[C@H](CN(C)Cc1ccc(C(=O)O)cc1)[C@H](C)CN([C@H](C)CO)S2(=O)=O`, the relative growth is 0.954. As for `CO[C@H]1CN(C)C(=O)c2ccc(NC(=O)c3ccc(F)cc3)cc2OC[C@H](C)N(C(=O)CN(C)C)C[C@@H]1C`, the relative growth was found to be 1.11.

Regarding `C=CCC[C@@H](Cc1ccc(F)cc1)C(=O)O[C@H](CNC(=O)[C@@H](CC=C)CC(=O)N[C@@H](CO)Cc1ccccc1)c1ccccc1`, the relative growth was found to be 1.27. The compound `FC(F)(F)c1ccccc1/N=C1\CCCc2ccccc21` came in with a relative growth of 0.695. On to `O=C(C[C@@H]1C[C@@H]2c3cc(NC(=O)NC4CCCC4)ccc3O[C@@H]2[C@@H](CO)O1)NCc1ccc(-c2ccccc2)cc1`, for which the relative growth is 0.96. For `CC(=O)OC/C=C(\C)CC/C=C(\C)CC/C=C(\C)CC/C=C(\C)CC/C=C(\C)CC/C=C(\C)CC/C=C(\C)CC/C=C(\C)CCC=C(C)C` the value was 1.01. The value for `O=C(C[C@@H]1C=C[C@H](NC(=O)c2cnccn2)[C@@H](CO)O1)NCc1ccccc1F` was 1.05. `CCCN(C)C[C@H]1Oc2cc(C#Cc3ccc(OC)cc3)ccc2S(=O)(=O)N([C@H](C)CO)C[C@H]1C` gave a relative growth of 0.829. The value for `NCCCCCC(=O)O` was 0.866; that for `CS(=O)(=O)O.CSc1ccc2c(c1)C(N1CCN(C)CC1)Cc1ccccc1S2` (centres undefined) was 0.138. On to `Cc1ccc(S(=O)(=O)N[C@H]2CC[C@@H](CC(=O)NCc3ccc(Cl)c(Cl)c3)O[C@@H]2CO)cc1`, for which the relative growth is 0.998. Take `CC1=CC(=O)C2=C(C)CC[C@@H]3[C@H](OC(=O)[C@H]3C)[C@@H]12`: the relative growth was 0.91. Turning to `CC1=C(C)C(=O)C(C(CCCCCC(=O)O)c2ccccc2)=C(C)C1=O` (centres undefined), the relative growth was found to be 1.16. `CC(C)(C)OC(=O)CC[C@]1(C(=O)NCCN2CCOCC2)COC(c2ccc(OCCCO)cc2)=N1` came in with a relative growth of 1.06. Turning to `C[C@H]1CN([C@@H](C)CO)C(=O)c2cc(C#Cc3cccc(F)c3)cnc2O[C@H]1CN(C)C(=O)C1CCOCC1`, the relative growth was 0.973. In the case of `Cl.Cl.Cl.NCCCCNCCCN`, the relative growth amounted to 0.858. `COc1cccc(C#Cc2ccc3c(c2)O[C@@H](CN(C)C(C)=O)[C@H](C)CN([C@@H](C)CO)S3(=O)=O)c1`: the relative growth is 0.859. For `CC(=O)[C@@]1(O)CC[C@H]2[C@@H]3CCC4=CC(=O)CC[C@]4(C)[C@H]3CC[C@@]21C` the value was 0.97; for `O=C(C[C@@H]1C[C@H]2c3cc(NC(=O)c4ccc5c(c4)OCO5)ccc3O[C@H]2[C@H](CO)O1)NCc1ccccn1`, 1.04. `COc1ccccc1S(=O)(=O)N[C@H]1C=C[C@H](CC(=O)N2CCOCC2)O[C@H]1CO` showed a relative growth of 1.14. Compound `CC1(C)[C@@H](O)CC[C@]2(C)C3CC=C4[C@@H]5C[C@@]6(C)C[C@H](OC6=O)[C@]5(C)CC[C@@]4(C)[C@]3(C)CC[C@@H]12` (some centres undefined) came in with a relative growth of 0.979. Compound `C[C@H]1CN([C@@H](C)CO)C(=O)c2cc(-c3cccc(C(=O)N(C)C)c3)cnc2O[C@@H]1CN(C)C(=O)Cc1ccccn1` returned a relative growth of 1.04. Compound `COc1ccc(-c2cc(=O)c3c(O)cc(O[C@@H]4O[C@H](CO[C@H]5O[C@H](C)[C@@H](O)[C@H](O)[C@@H]5O)[C@@H](O)[C@H](O)[C@H]4O)cc3o2)cc1O` yielded a relative growth of 0.985.

`Cc1ccccc1S(=O)(=O)N1C[C@@H](O)COC[C@H]2O[C@H](CC(=O)N3CCC(Cc4ccccc4)CC3)CC[C@@H]21` displayed a relative growth of 0.669. For `C[C@H](O)C#Cc1ccc2c(c1)O[C@H](CN(C)C(=O)c1ccncc1)[C@H](C)CN([C@@H](C)CO)S2(=O)=O` the value was 1.1; for `O=C(C[C@H]1C=C[C@H](NC(=O)CN2CCOCC2)[C@@H](CO)O1)NCCc1ccncc1`, 0.931; for `CC[C@@H](O)C#CCN1CCN(C)CC1`, 1.1. For `CCOC(=O)Cc1c(C)[nH]c(=O)[nH]c1=O` the value was 0.885; for `CCCc1nc(C(C)(C)O)c(C(=O)O)n1Cc1ccc(-c2ccccc2-c2nn[nH]n2)cc1`, 1.01.

Compound `O=C(c1ccc(F)cc1)C1CCN(CCn2c(=O)[nH]c3ccccc3c2=O)CC1` displayed a relative growth of 0.881. For the compound `C[C@]12CC[C@H](O)CC1=CC[C@@H]1C2CC[C@]2(C)C(c3cccnc3)=CCC12` (some centres undefined), the relative growth stood at 1.04. The compound `Cc1ccc(C(=O)C(C)CN2CCCCC2)cc1.Cl` (centres undefined) returned a relative growth of 0.914. Compound `Cc1c(/C=N/c2ccc(C(C)C)cc2)sc2ccccc12` had a relative growth of 1. `Nc1ccc(-n2cccc2)cc1Cl` gave a relative growth of 0.948. `Oc1cc2c(cc1O)C1c3ccc(O)c(O)c3OCC1(O)C2` (centres undefined) had a relative growth of 1.31. Compound `C[C@@H](SC(=S)N1CCOCC1)C(=O)O` displayed a relative growth of 0.794. For `COc1ccc(-c2cc(=O)c3c(O)c(OC)c(OC)c(OC)c3o2)cc1` the value was 1. Compound `CCCC#Cc1ccc2c(c1)O[C@@H](CN(C)Cc1ccc3c(c1)OCO3)[C@@H](C)CN([C@H](C)CO)S2(=O)=O` showed a relative growth of 0.965. The value for `COC[C@H]1CN(C)N=C(C2CC2)O1` was 0.798. `CCN(CC)C(=O)c1ccc(O)c(OC)c1`: the relative growth was found to be 0.943. The compound `C[C@@H](NC(=O)C[C@@H]1C=C[C@@H](NC(=O)CN2CCOCC2)[C@H](CO)O1)c1ccccc1` displayed a relative growth of 1.06. The value for `[N-]=[N+]=Nc1ccccc1[C@H]1OC(c2ccc(OCCCO)cc2)=N[C@@]1(Cc1ccccc1)C(=O)NC[C@@H](O)CO` was 0.848; that for `COc1ccc(S(=O)(=O)N(C)C[C@@H]2Oc3c(NC(=O)Nc4cccc5ccccc45)cccc3C(=O)N([C@@H](C)CO)C[C@H]2C)cc1OC` was 1.09; that for `Cc1ccc(S(=O)(=O)N(C)C[C@@H]2Oc3ncc(C#CC4(O)CCCC4)cc3C(=O)N([C@H](C)CO)C[C@@H]2C)cc1` was 0.826.

`CCN(CC)CCCC(C)Nc1c2ccc(Cl)cc2nc2ccc(OC)cc12.Cl.Cl` (centres undefined) came in with a relative growth of 1.03.
